Source: paper PMC12040185

Target: recombinant murine DNase1 expressed in Pichia pastoris (Mus musculus) (UniProt P49183)

## skeletal muscle α-actin (from UniProt P68135 1-377) (natural protein)
  inhibition of DNase1 nuclease activity (hyperchromicity assay, pH 8, 0.1 mM CaCl2 and 1 mM MnCl2) after 20 min pre-incubation with skeletal muscle G-actin; activity without actin set 100%: 50%
